Molecular target: T1, hNedd4L-WW3* domain (third WW domain of human Nedd4-like protein, GST tag removed) (human, UniProt Q96PU5 496-539)
T1 construct: Nedd4-like protein (Nedd4L), human, cDNA clone KIAA0439, third WW domain (WW3*); Thrombin cleavage may leave vector residues at the N-terminus (surmised); source: E. coli BL21(DE3), purified (Glutathione Sepharose 4B, thrombin cleavage on the resin); 15N-labelled in M9 medium for NMR; not shown: GST, N-terminal, cleaved
Assay: ITC; peptide titrated into the cleaved WW domain (40 to 150 uM) in the cell; 10 mM sodium phosphate, pH 7.4, 25 °C; MicroCal VP-ITC; bimolecular interaction model; three runs (further runs with 100 mM and 500 mM NaCl told in words only)
Details: both partners purified

Amino acid sequences for entries named in this document (tags omitted). Residues count along the entry.
UniProt Q96PU5, 496-539: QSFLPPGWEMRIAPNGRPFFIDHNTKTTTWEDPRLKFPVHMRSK

B1: pU24-6A peptide (15-mer, N-terminus of U24 from HHV-6A phosphorylated at Thr6) (peptide)
peptide: MDPPRTPPPSYSEVL
modifications: phosphoryl threonine at Thr6
notes: U24 protein of Human Herpes Virus type 6A (HHV-6A), 15-mer of the N-terminus with phospho-threonine at Thr6; source: purified peptide
B1 showed a Kd of 760 nM.

From article PMC5209733, “U24 from Roseolovirus interacts strongly with Nedd4 WW Domains” (Scientific Reports, 2017)
